From patent publication US20090060984A1, “ANIONIC SURFACTANTS LETHAL TO GRAM-POSITIVE BACTERIA” (priority 2007, published 2009)

Experiments:
Bacillus subtilis = assay: Growth on surfactant/TSA agar plates; assay type: cell-based; settings: TSA with 0.5% sodium bis[2-ethylhexyl]sulfosuccinate, 37° C., 24 hours
Micrococcus luteus = assay: Growth on surfactant/TSA agar plates; assay type: cell-based; settings: TSA with 0.5% sodium bis[2-ethylhexyl]sulfosuccinate, 37° C., 24 hours

Measured: No Growth(−)/Full Growth(+), columns 1*, 2*

CCCCC(CC)COC(=O)CC(C(=O)OCC(CC)CCCC)S(=O)(=O)[O-].[Na+] (stereo not drawn) [NaAOT, Sodium bis(2-ethylhexyl)sulfosuccinate]
−: Bacillus subtilis; Bacillus subtilis (first listing) | Bacillus subtilis; Bacillus subtilis (second listing) | Micrococcus luteus
